# DT40 TDP1 CPT: growth inhibition of DT40 Tdp1-/-;hTDP1 cells with camptothecin (screen for TDP1 inhibitors) | chicken DT40 Tdp1-/-;hTDP1 cells + 20 nM CPT, ATP luminescence, 48 h | Potency, µM (doses to about 46.2 µM), without a hit: top-dose activity change, negative = growth inhibition, actives largely listed as inhibitors | hit rate 12% among 420,000; note: potency is the fitted concentration of half-maximal effect; % is set by controls: 0 for no effect and ±100 for the full control effect; nearly all actives have a fitted effect of over 55% in size
#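 Chicken DT40 Tdp1-/- cells stably complemented with human TDP1 were seeded at 400 cells/well in medium containing 20 nM camptothecin, exposed to pin-transferred compounds, and grown at 37 °C for at least 48 hr. Viability was read as ATP luminescence.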
# miR-21 reporter: miR-21 reporter, rising signal; HeLa miR-21 FLuc reporter, luciferase, 48 h; Potency, µM (titrated, usually from 38.3 µM), for the others: at the top dose reporter change, positive = more light; 340,000 tested, under 10 active; AID 2288; active = well fitted rising curve with a large enough effect; inconclusive = small, poorly fitted or top-dose-only effect; inactive = no such curve, though single readings can be large or run the other way;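 also: % of control where 0% means no effect; miR-21 action dims this reporter so a rising signal means less miR-21 action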
#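 HeLa cells stably expressing CMV-driven firefly luciferase with a downstream miR-21 binding sequence, endogenously expressing miR-21, were treated with titrations (up to about 40uM final) for 48 hours at 37 degree Celsius. Luciferase luminescence was read after lysis.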
# uPA generation: cell surface uPA generation inhibition | Potency, µM (series often up to 38.3 µM), for the others: at the top dose activity change, negative = inhibition, actives largely listed as inhibitors | hit rate 0.31% among 330,000 | cell surface uPA generation assay, qHTS | AID 540303; active = well fitted inhibition curve with a large enough effect; inconclusive = small, poorly fitted or top-dose-only effect; inactive = no such curve, though single readings can be large or run the other way; tested in mouse RAW 264.7 cells; note: potency is the fitted concentration of half-maximal effect; % is set by controls: 0 for no effect and ±100 for the full control effect; nearly all actives have a fitted effect of over 55% in size
# TDP1 inh: blocks human tyrosyl-DNA phosphodiesterase 1; Q9NUW8; recombinant TDP1, AlphaScreen DNA substrate cleavage; Potency, µM (doses to about 130 µM), without a hit: at the highest dose activity change, negative = inhibition, actives largely listed as inhibitors; hit rate 0.28% among 350,000; note: potency is the fitted concentration of half-maximal effect; % is set by controls: 0 for no effect and ±100 for the full control effect; nearly all actives have a fitted effect of over 40% in size
#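 Signal: AlphaScreen proximity between streptavidin donor and anti-FITC acceptor beads on intact substrate. Reaction: Tdp1 1 nM, substrate 15 nM final, 5 min RT after 15 min compound preincubation.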
# DT40 TDP1 no CPT: qHTS for Inhibitors of human tyrosyl-DNA phosphodiesterase 1 (TDP1): qHTS in cells in absence of CPT. hit rate 15% among 420,000. DT40 Tdp1-/- hTDP1 cells, no CPT, ATP luminescence, 48 h. AID 686978, 2013. Potency, µM (series often up to 46.2 µM), for inactives: at the highest dose activity change, negative = growth inhibition, usual class: inhibitors; note: potency is the fitted concentration of half-maximal effect; % is set by controls: 0 for no effect and ±100 for the full control effect; nearly all actives have a fitted effect of over 55% in size
#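 Compound effects on proliferation are scored in DT40 Tdp1-/-;hTDP1 cells in the absence of CPT. ATP levels (CellTiter-Glo luminescence) are recorded after a ≥48 hr, 37 °C incubation.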
# Numbers without * were called inactive; ? = inconclusive; . = not tested or not shown. Sampled rows, rich in hits. Any-hit rate of the full collection: about 16%. Unless noted, calls come from the whole dose curve; as a rule, active = well fitted curve in the direction sought with a large enough effect; inconclusive = small, poorly fitted or top-dose-only effect, or another doubt; inactive = no such curve, though single readings can be large; an effect the other way counts as inactive or inconclusive.
# Results follow in this order: DT40 TDP1 CPT | miR-21 reporter | uPA generation | TDP1 inh | DT40 TDP1 no CPT
CO[C@H]1C[C@@H]2CC[C@@H](C)[C@@](O)(O2)C(=O)C(=O)N2CCCC[C@H]2C(=O)O[C@H]([C@H](C)C[C@@H]2CC[C@@H](O)[C@H](OC)C2)CC(=O)[C@H](C)/C=C(/C)[C@@H](O)[C@@H](OC)C(=O)[C@H](C)C[C@H](C)C=C/C=C\C=C/1C
  4µM* | . | . | 3% | ?
CO[C@H]1C[C@@H]2CC[C@@H](C)[C@@](O)(O2)C(=O)C(=O)N2CCCC[C@H]2C(=O)O[C@H]([C@H](C)C[C@@H]2CC[C@@H](O)[C@H](OC)C2)CC(=O)[C@H](C)C=C(C)[C@@H](O)[C@@H](OC)C(=O)[C@H](C)C[C@H](C)C=CC=CC=C1C
  . | 9% | . | . | .
O=C(c1ccccc1)c1ccc(-n2cnnc2)c([N+](=O)[O-])c1
  ? | 2% | -3% | 5% | ?
CCN(CC(=O)NC(C)(C)C)C(=O)CCl
  21µM* | 3% | -4% | 1% | 13µM*
COc1ccc(N2CCN(C(=O)CNC(=O)c3cccc(Br)c3)CC2)cc1
  ? | 5% | 0% | 3% | 15µM*
Cc1ccc(C)c(S(=O)(=O)N2CCN(C(=O)CCC(=O)c3cc(C)sc3C)CC2)c1
  ? | . | -9% | -4% | 23µM*
COc1ccc(N2CCN(C(=O)CCC(=O)c3cc(C)sc3C)CC2)cc1
  ? | 6% | -2% | 8% | 16µM*
COc1ccc(N2CCN(C(=O)CCCC(=O)c3ccccc3)CC2)cc1
  21µM* | -6% | 1% | . | ?
COc1ccccc1-c1cccc([C@@H]2C[C@H]3[C@H](CON3C)CN2C(=O)C(C)(C)C)c1
  2% | . | 1% | . | 1%
CCOC(=O)c1ccc(S(=O)(=O)N2CCN(C)CC2)cc1
  3% | -6% | -9% | -2% | -2%

# Results follow in this order: DT40 TDP1 CPT | miR-21 reporter | uPA generation | TDP1 inh | DT40 TDP1 no CPT
COc1ccc(C(=O)CCC(=O)N2CCN(c3ccc(N4CCOCC4)nn3)CC2)cc1
  3% | -1% | 7% | 1% | -8%
COc1ccc(C(=O)CCC(=O)N2CCN(c3ccc(C)cc3)C(C)C2)cc1 (stereo not given)
  ? | 12% | -3% | 15% | 23µM*
COc1ccc2cc([C@H](C)CO)ccc2c1
  13% | . | . | . | -13%
C=C1CCc2c([nH]c3ccc(OCC(C)C)cc23)C1=O
  0.82µM* | ? | -14% | . | 0.92µM*
CCCn1c(SCC(=O)NCCc2ccc(Cl)cc2Cl)n[nH]c1=O
  -22% | -6% | 4% | 3% | -20%
COc1ccc(S(=O)(=O)NCc2ccccn2)cc1NC(=O)c1ccccc1
  4.6µM* | ? | -18% | 11% | 4.1µM*
COc1ccc(S(=O)(=O)NCc2ccncc2)cc1NC(=O)c1ccccc1F
  ? | . | -1% | -2% | -26%
CCOc1ccc(S(=O)(=O)NCc2ccccn2)cc1NC(=O)c1ccccc1F
  0.65µM* | ? | -19% | 3% | 0.65µM*
COc1ccc(S(=O)(=O)NCc2ccccn2)cc1Br
  -10% | -1% | 0% | . | -2%
COc1ccc(S(=O)(=O)NCc2ccccn2)cc1NC(=O)c1ccc(C)cc1
  7.3µM* | . | -16% | -1% | 5.2µM*

# Pulled one by one from the list above, three records:
# Results follow in this order: DT40 TDP1 CPT | miR-21 reporter | uPA generation | TDP1 inh | DT40 TDP1 no CPT
CCCn1c(SCC(=O)NCCc2ccc(Cl)cc2Cl)n[nH]c1=O
  -22% | -6% | 4% | 3% | -20%
COc1ccc(C(=O)CCC(=O)N2CCN(c3ccc(C)cc3)C(C)C2)cc1 (stereo not given)
  ? | 12% | -3% | 15% | 23µM*
COc1ccc(S(=O)(=O)NCc2ccncc2)cc1NC(=O)c1ccccc1F
  ? | . | -1% | -2% | -26%

# Further records follow.
# Results follow in this order: DT40 TDP1 CPT | miR-21 reporter | uPA generation | TDP1 inh | DT40 TDP1 no CPT
CC(C)(C)c1ccc(CCC2OCC(C[N+]3(C)CCOCC3)O2)cc1 (stereo not given)
  1.8µM* | 3% | -1% | 4% | 2.1µM*
Cc1ccc(N2NC(C)(c3cccs3)NC2=S)cc1 (stereo not given)
  ? | -29% | -2% | 9% | ?
COc1ccc(CN(C)C(=O)c2ccccc2Sc2ccccc2C#N)cc1OC
  16µM* | 6% | -6% | 5% | ?
CCN(CC)CC(=O)Nc1cccc2c1C(=O)c1ccccc1C2=O
  -23% | -9% | 0% | 5% | 10%
O=C1c2ccccc2C(=O)c2c(NCCCN(CCO)CCO)cccc21
  ? | 19% | -11% | 4% | 21µM*
